By UniProt entry, the sequences of proteins in these tests, tags left out. Where a name states a change or a piece, a line headed by the entry shows the natural chain unless it says otherwise.
UniProt P35563, whole entry: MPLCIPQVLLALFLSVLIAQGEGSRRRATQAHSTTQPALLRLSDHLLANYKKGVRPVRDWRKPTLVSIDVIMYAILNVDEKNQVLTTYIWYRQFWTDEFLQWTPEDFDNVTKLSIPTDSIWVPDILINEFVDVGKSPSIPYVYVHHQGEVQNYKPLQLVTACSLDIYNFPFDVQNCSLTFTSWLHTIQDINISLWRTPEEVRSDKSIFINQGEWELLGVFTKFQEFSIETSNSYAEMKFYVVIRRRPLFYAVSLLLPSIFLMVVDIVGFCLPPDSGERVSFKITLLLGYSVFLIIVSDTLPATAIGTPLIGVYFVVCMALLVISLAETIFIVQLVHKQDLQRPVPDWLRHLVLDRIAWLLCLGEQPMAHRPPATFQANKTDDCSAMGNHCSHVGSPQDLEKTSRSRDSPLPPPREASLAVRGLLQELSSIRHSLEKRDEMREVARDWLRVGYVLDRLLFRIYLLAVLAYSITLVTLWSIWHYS
UniProt Q9JJ16: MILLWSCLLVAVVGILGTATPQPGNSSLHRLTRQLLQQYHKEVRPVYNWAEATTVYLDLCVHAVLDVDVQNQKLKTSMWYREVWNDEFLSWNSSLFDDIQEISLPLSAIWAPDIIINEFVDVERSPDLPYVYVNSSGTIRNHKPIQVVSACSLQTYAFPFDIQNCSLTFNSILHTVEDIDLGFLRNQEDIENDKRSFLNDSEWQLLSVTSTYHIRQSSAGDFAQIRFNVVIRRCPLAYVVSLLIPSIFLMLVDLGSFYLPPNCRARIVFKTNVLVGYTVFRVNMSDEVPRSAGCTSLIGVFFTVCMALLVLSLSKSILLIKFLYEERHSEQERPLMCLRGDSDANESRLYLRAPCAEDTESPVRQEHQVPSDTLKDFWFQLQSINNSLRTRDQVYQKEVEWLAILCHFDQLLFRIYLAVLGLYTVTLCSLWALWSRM
UniProt Q62758: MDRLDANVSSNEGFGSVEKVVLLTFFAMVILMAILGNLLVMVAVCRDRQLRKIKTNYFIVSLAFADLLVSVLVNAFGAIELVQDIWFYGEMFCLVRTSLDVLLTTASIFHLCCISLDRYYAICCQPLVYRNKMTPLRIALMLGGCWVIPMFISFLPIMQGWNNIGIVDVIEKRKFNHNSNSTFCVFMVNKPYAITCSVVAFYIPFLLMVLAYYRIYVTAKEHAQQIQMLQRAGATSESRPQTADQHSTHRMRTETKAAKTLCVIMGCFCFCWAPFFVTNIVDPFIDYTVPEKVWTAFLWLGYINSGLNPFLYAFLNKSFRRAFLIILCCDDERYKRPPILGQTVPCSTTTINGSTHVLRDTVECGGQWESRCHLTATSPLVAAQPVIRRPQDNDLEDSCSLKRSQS

According to ChEMBL document CHEMBL1130223 (J Med Chem, 1997):

Columns and labels:
[1] = molecular target: Serotonin 3 (5-HT3) receptor (Rattus norvegicus, UniProt P35563+Q9JJ16); test: Inhibition of [3H]BRL-43694 binding to 5-hydroxytryptamine 3 receptor of rat cortical homogenate.
[2] = molecular target: 5-hydroxytryptamine receptor 4 (Rattus norvegicus, UniProt Q62758); test: Inhibition of radiolabeled [3H]GR-113808 ligand binding to 5-hydroxytryptamine 4 receptor

SMILES: NCCc1c[nH]c2ccc(O)cc12 [SEROTONIN]
- IC50 [1]: 727 nM
- IC50 [2]: 147 nM
